Here are results for 29 molecules from PubChem BioAssay AID434973 (Sanford-Burnham Center for Chemical Genomics, 2010).

Amino acid sequences for entries named in this document (tags omitted). Residues count along the entry.
UniProt Q9BQF6, 706-1050 limits assumed: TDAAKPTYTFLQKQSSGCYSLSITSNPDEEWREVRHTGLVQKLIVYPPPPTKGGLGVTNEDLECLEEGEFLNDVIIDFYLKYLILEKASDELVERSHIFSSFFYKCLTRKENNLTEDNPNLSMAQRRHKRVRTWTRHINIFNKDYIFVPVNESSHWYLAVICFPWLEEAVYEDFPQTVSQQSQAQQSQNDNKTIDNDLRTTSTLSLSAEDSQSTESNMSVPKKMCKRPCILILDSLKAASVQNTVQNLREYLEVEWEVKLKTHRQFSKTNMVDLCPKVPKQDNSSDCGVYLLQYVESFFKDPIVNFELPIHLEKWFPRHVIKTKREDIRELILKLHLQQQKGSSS

The inhibition is the change of the read-out against control, counted positive when it falls.

The list shows a part of the results, in another mix than the full data. Calls of active or inactive are those of the source.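 The calls were made as follows: active = inhibition above about 50% at the single test dose (limit read from the data); inactive = the rest.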

The target in the assay is Sentrin-specific protease 7 (Homo sapiens) (UniProt Q9BQF6). Nature of the assay: blockers of human SENP7 peptidase activity – biochemical, luminescence, uHTS, primary screen (AID 434973).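 Also: plate controls were DMSO with enzyme for no effect and no enzyme buffer wells for full effect.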 The note with it: recombinant SENP7, Z-RLRGG-aminoluciferin luminescence, 40 min; at 5 µM; stronger effect = higher value.
For `O=[N+]([O-])c1cc([N+](=O)[O-])c(Nc2nnnn2CCO)c([N+](=O)[O-])c1`, the inhibition is inactive: -6.65%.
Next, `CCOC(=O)C(CC)C1=NC(C)(C)Cc2ccccc21.O=[N+]([O-])c1cc([N+](=O)[O-])c(O)c([N+](=O)[O-])c1` (centres undefined): inactive: 3.03%; `CCCOc1ccc(NP(C)(=O)Oc2ccc(Cl)cc2)cc1` (centres undefined): inactive: -9.05%.
Next, `CP(=O)(Nc1ccc(SC(F)(F)F)cc1)Oc1ccccc1` (centres undefined): inactive: -4.59%.
Next, `COc1ccccc1OP(C)(=O)Nc1c(C)cccc1C` (centres undefined): inactive: 2.27%.
For `CN1CCCCC1COC(=O)C1(O)c2ccccc2CCc2ccccc21` (centres undefined), the inhibition is inactive: -0.332%.
`CP(=O)(Nc1ccccc1Br)Oc1ccccc1` (centres undefined): the inhibition is inactive: 1.07%.
Next, `COc1ccccc1OP(C)(=O)Nc1ccccc1` (centres undefined): inactive: 0.27%; `CP(=S)(Nn1cnnc1)Oc1ccccc1` (centres undefined): inactive: -8%.
Next, `CP(=O)(NC(=O)Nc1ccccc1)Oc1ccccc1` (centres undefined): inactive: 14.2%.
With `CCc1ccc(OP(C)(=O)N2CCN(c3ccc([N+](=O)[O-])cc3)CC2)cc1` (centres undefined), the inhibition was inactive: 5.67%.
In the case of `Cc1cc(C)cc(OP(C)(=O)Nc2ccc(SC(F)(F)F)cc2)c1` (centres undefined) it was inactive: 6.2%; in that of `Cc1cccc(C)c1OP(C)(=O)Nc1ccc(SC(F)(F)F)cc1` (centres undefined), inactive: -7.13%.
With `CP(=O)(Nc1ccc(SC(F)(F)F)cc1)Oc1ccc(Cl)cc1` (centres undefined), the inhibition was inactive: 0.763%.
In the case of `CP(=O)(Oc1ccccc1)OC(c1ccccc1)C(F)(F)F` (centres undefined) it was inactive: 3.53%.
In the case of `CP(=O)(Nc1ccccn1)Oc1ccc(Cl)cc1` (centres undefined) it was active: 68.1%.
In the case of `CCOC(=O)c1ccc(NP(C)(=O)Oc2ccc(OC)cc2)cc1` (centres undefined) it was inactive: -1.06%; in that of `O=[N+]([O-])c1cc([N+](=O)[O-])c(O)c([N+](=O)[O-])c1.c1ccc(Oc2ccncc2)cc1`, inactive: 6.67%; in that of `CCOP(C)(=S)SCC(=O)NC(C)C(=O)O` (centres undefined), inactive: -1.31%.
Regarding `CCN(CC)CCCOC(=O)C(O)(c1ccccc1)c1ccccc1`, the inhibition is inactive: 0.591%.
Next, `CC(C)(C)c1ccc(OP(C)(=O)Nc2ccc(SC(F)(F)F)cc2)cc1` (centres undefined): inactive: 3.32%; `Cc1cccc(C)c1OP(C)(N)=O` (centres undefined): inactive: 10%.
In the case of `O=[N+]([O-])c1cc([N+](=O)[O-])c(Nc2cccnc2)c([N+](=O)[O-])c1` it was inactive: 17.7%; in that of `Cc1cc(C)cc(OP(C)(N)=O)c1` (centres undefined), inactive: -7.44%.
Next, `COc1ccccc1OP(C)(=O)Nc1cc(Cl)ccc1C` (centres undefined): inactive: 1.13%.
Regarding `COc1ccc(OP(C)(=O)Nc2cccc(F)c2)cc1` (centres undefined), the inhibition is inactive: 0.0295%.
Next, `COc1ccccc1OP(C)(=O)Nc1ccc(C)cc1` (centres undefined): inactive: 4.58%.
Next, `Cc1ccc(NP(C)(=O)Oc2ccccc2)c(C)c1` (centres undefined): inactive: 1.8%.
Next, `CCOC(=O)c1ccc(NP(C)(=O)Oc2ccccc2)cc1` (centres undefined): inactive: 0.347%.
